Measured values published in ChEMBL document CHEMBL1125842, “Synthesis and anticonvulsant activity of 2-iminohydantoins” (J Med Chem, 1991).

Columns and labels:
[1] = Protective index was determined as ratio of TD50 to ED50(scMET method); format: functional
[2] = Protective index was determined as ratio of TD50 to ED50(MES method); format: functional

Compound: CCC1(c2ccccc2)NC(=O)N(C)C1=O (configuration not stated) [MEPHENYTOIN]
- PI [1]: 5
- PI [2]: 2.5
